Reference: patent EP4831188A1, “GLYCYRRHETINIC ACID DERIVATIVE AND USE THEREOF” (dated 2026)
Marks after values point to notes of the source that are not given here.

Experiments:
[1] = test system: HaCaT cells; assay: In vitro inhibition of ROS release assay (8 Gy X-ray, flow cytometry); conditions: 24 h after 8 Gy irradiation; Compound 16 0.5 µM, triethanolamine 0.5 µM, hydrocortisone butyrate 10 nM
Experimental: • Culture medium: DMEM containing 10% FBS; • Test article: Compound 16; control drugs: triethanolamine, hydrocortisone butyrate; • Reagent: ROS assay kit (Beyotime); • Instruments: RS 2000·Pro 225 Rad Source X-ray irradiator; flow cytometer.
The cells were divided into a blank control group, a model group, a Compound 16 group, a triethanolamine group, and a hydrocortisone butyrate group, with 3 replicate wells per group. The cells were cultured in DMEM containing 10% FBS in a 37°C, 5% CO2 incubator. The blank control group and the model group were treated with the corresponding volume of blank solvent (DMSO) only. The Compound 16 group was treated with 0.5 µM Compound 16. The triethanolamine group was treated with 0.5 µM triethanolamine. The hydrocortisone butyrate group was treated with 10 nM hydrocortisone butyrate.
At the end of administration, the cells in the model group, the Compound 16 group, the triethanolamine group, and the hydrocortisone butyrate group were exposed to 8 Gy X-ray irradiation. The blank control group received no irradiation. The intracellular ROS levels in each group were detected by flow cytometry 24 h after irradiation, according to the instructions of the ROS assay kit.

[2] = test system: guinea pigs; assay: Inhibitory activity assay against ear swelling in guinea pigs (DMSO/ethanol inflammatory agent); conditions: topical, 200 µL per ear; test compounds and glycyrrhetinic acid 40 mg/mL in absolute ethanol; hydrocortisone butyrate cream 1 mg/g; 45 min after modeling
Source text: • 2.1 Animals: Ordinary grade guinea pigs, weighing about 300 g. • 2.2 Reagents: Inflammatory agent made from 80% dimethyl sulfoxide (DMSO) and 20% absolute ethanol; DMSO; absolute ethanol, analytical grade.
Ordinary grade guinea pigs were randomly divided into groups, with 10 animals in each group, half male and half female. The inner and outer sides of the left and right ears of the guinea pigs were shaved, and 4 points were marked on the medial side of the left ear margin. The thickness of these 4 points on the auricle of the guinea pigs was measured using a vernier caliper, and the average value was obtained as the baseline before administration. The corresponding drugs were applied dropwise to the auricles of the guinea pigs in each test group (Compound 1, Compound 2, Compound 3, Compound 9, Compound 16, Compound 17, Compound 18, Compound 21) and the glycyrrhetinic acid group, with 200 µL per ear. The blank control group and the model group were treated with the corresponding volume of absolute ethanol only. The positive control hydrocortisone butyrate group was treated with an equal volume of hydrocortisone butyrate cream. After 30 min of administration, the drugs were wiped off. The animals in the model group and the test groups were treated with the inflammatory agent on both sides of the left auricle (50 µL per ear). The blank control group was treated with the corresponding volume of normal saline only. At 45 min after modeling, the thickness of these 4 points was measured using a vernier caliper, and the average value was obtained. The difference was calculated as the ear swelling value of the guinea pigs. Inhibition rate of swelling value = (Swelling value of the model group - Swelling value of the sample group) / Swelling value of model group × 100%, wherein the sample group includes each test group, glycyrrhetinic acid group, and positive control hydrocortisone butyrate group.
• Test compounds and glycyrrhetinic acid: Dissolved in absolute ethanol to prepare a solution with a concentration of 40 mg/mL. • Positive control: Commercially available hydrocortisone butyrate cream (from Hubei Heng'an Fulin Pharmaceutical Co., Ltd., specification: 1 mg/g).

[3] = test system: SD rats; assay: Radiation dermatitis assay (X-ray, 25 Gy); conditions: 100 mg once daily for 28 days, test compounds 0.5% cream, triethanolamine cream 0.67%, hydrocortisone butyrate cream 1 mg/g
Experimental: • 5.1 Animals: SD rats, SPF grade, male, 230-250 g. • 5.2 Equipment: RS 2000·Pro 225 Rad Source X-ray Irradiator; SpectraMax i3 Multifunctional Microplate Reader.
Eighty SD rats were randomly divided into groups, with 10 rats in each group. Except for the blank control group, all rats were subjected to modeling using a Rad Source X-ray irradiator. The hair on the irradiation site was removed 24 hours before irradiation. On the day of irradiation, the rats were anesthetized and received a single X-ray irradiation on the posterior buttock at a dose of 25 Gy, a dose rate of 4 Gy/min, and an irradiation area of 2×2 cm^2. On the second day after irradiation, the test groups (Compound 1, Compound 16, Compound 21) received the corresponding drugs, 100 mg per time, once daily for 28 consecutive days. The blank control group and the model (with matrix) group received the corresponding weight of blank matrix (triethanolamine cream matrix). The positive control group was treated with the corresponding weight of triethanolamine cream or hydrocortisone butyrate cream. At the end of administration, the damaged skin was scored according to erythema/darkening, edema/papules, exudation/crusting, and erosion, with reference to the scoring criteria for atopic dermatitis. After scoring, skin from the damaged site was collected and homogenized, and the content of inflammatory cells in the skin was detected using an ELISA kit. Additional skin was collected, fixed, and then stained with HE, and the number of inflammatory cells was observed.
• Test compounds: The formulations were prepared with reference to triethanolamine cream (test compound concentration: 0.5%). • Positive controls: Commercially available triethanolamine cream (from JOHNSON & JOHNSON SANTE BEAUTE FRANCE, specification: 0.67%); hydrocortisone butyrate cream (from Hubei Heng'an Fulin Pharmaceutical Co., Ltd., specification: 1 mg/g).

In the case of CCCC(=O)O[C@]1(C(=O)CO)CC[C@H]2[C@@H]3CCC4=CC(=O)CC[C@]4(C)[C@H]3[C@@H](O)C[C@@]21C, the ROS level [1] is reported as 11.8 ···, the “Ear swelling inhibition rate” value [2] is reported as “A (greater than 70%)” and the “Score (skin lesion score of radiation dermatitis)” value ([3]; end of administration) is reported as 5.5+0.8*. The Number of inflammatory cells ([3]; skin, HE staining) was 192 ··.
